The structures appear in SMILES notation.

The target in this assay is T1, Protein kinase C epsilon type (Homo sapiens, UniProt Q02156).
T1 sequence (Q02156 whole entry): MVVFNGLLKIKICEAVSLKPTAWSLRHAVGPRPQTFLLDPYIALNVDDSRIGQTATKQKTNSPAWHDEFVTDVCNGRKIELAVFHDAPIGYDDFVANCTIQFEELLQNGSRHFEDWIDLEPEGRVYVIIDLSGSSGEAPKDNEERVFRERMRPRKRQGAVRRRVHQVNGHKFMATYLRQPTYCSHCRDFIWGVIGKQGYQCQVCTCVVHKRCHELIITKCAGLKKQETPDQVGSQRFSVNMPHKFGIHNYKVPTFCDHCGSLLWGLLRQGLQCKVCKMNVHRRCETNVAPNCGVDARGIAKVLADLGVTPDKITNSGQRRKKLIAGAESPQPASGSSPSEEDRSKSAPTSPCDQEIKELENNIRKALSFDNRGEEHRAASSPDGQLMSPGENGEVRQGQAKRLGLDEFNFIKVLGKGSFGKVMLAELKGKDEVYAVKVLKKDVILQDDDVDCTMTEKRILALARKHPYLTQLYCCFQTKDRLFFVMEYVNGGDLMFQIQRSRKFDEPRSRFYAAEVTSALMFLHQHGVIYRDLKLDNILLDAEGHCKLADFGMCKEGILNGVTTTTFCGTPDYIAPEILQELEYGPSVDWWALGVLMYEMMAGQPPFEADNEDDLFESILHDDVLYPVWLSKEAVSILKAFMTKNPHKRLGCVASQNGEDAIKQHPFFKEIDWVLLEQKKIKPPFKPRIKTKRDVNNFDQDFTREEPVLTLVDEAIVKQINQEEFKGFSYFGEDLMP
In words: Inhibition of human Protein kinase C epsilon.

The term IC50 denotes the midpoint of a concentration-inhibition curve. `O=C(N[C@H]1CNCCC[C@H]1OC(=O)c1cc(O)c(C(=O)c2c(O)cccc2C(=O)O)c(O)c1)c1ccc(O)cc1` (racemic) gave an IC50 of 49 nM.

The values are drawn from ChEMBL document CHEMBL1128826, “Heteroatom effect in the PKC inhibitory activities of perhydroazepine analogs of balanol” (Bioorg Med Chem Lett, 1995).
